Tests used:
SW620 tumor cells = assay: Cell viability, MTT assay, 1-6 days; type: cell-based, human; conditions: 10 μg/ml
[1] = system: Human Colon Cancer HT-29 Xenografts; assay: rSIFN-co on human colon cancer HT-29 xenografts in nude mice; type: in vivo; conditions: 0.15 mg/mouse i.t. every other day
[2] = system: human lung cancer SPC-A4 xenografts; conditions: 0.15 mg/mouse i.t. every other day
Lung cancer cells, A549 = assay: Colony and pseudopod formation in three dimensional Matrigel culture; type: cell-based, human; conditions: 10 mcg/ml, after 8 days
[3] = system: procaspase-3, cleaved caspase-3, procaspase-8, cleaved caspase-8, PARP; assay: Apoptosis-related molecular markers by Western Blot; type: cell-based, human; conditions: A549 and SW620 cells, 24 hr or 48 hr; interferons 10 mcg/ml
beta-catenin = assay: Beta-catenin protein level by Western Blot; type: cell-based, human; conditions: 10 mcg/ml, 24, 48, 72 hr

Substance: IFN alpha-2b: Comparator interferon alpha-2b, from Huiyang Life Science and Technology Corp. or Shanghai Hua-xin High Biotechnology [reference compound]
- cell viability over time (MTT) (SW620 tumor cells): little time-dependent effect, if any
- TV(mm^3, mean ± SD) (D 0) ([1]; day 0): 128 ± 44 mm^3
- TV(mm^3, mean ± SD) (D 28) ([1]; day 28): 831 ± 420 mm^3
- TV(mm^3, mean ± SD) (D 0) ([2]; day 0): 191 ± 44 mm^3
- TV(mm^3, mean ± SD) (D 21) ([2]; day 21): 4908 ± 2433 mm^3
- invasive feet (pseudopod) formation (Lung cancer cells, A549): peduopod formation was obvious
- level of cleaved caspase-3 and cleaved caspase-8 [3]: neither of the interferons, IFN alpha-2b nor rSIFN-co, caused any reduction in the level of procaspase-3 or procaspase-8 or PARP, or induced any enhancement
- level of procaspase-3, procaspase-8 and PARP [3]: neither of the interferons, IFN alpha-2b nor rSIFN-co, caused any reduction
- beta-catenin protein level (beta-catenin; A549 cells): did not cause any apparent decrease in beta-catenin level
- beta-catenin protein level (beta-catenin; SW480 cells): did not cause any apparent decrease in beta-catenin level

— patent US10877024B2, “Methods of determining interferon having direct inhibitory effects on tumors and uses thereof” (SUPERLAB FAR EAST LIMITED, priority 2015, dated 2020)
